Measurements reported in patent US10723742B2 (priority 2015, dated 2020).

Biological target: human LSD1 protein (Homo sapiens (Human), UniProt O60341)

Q: With `Cc1ccc(-c2ccc(C(=O)N3CC[C@H](N)C3)cc2-c2ccc(C(F)(F)F)cc2)cc1` [Comparative Example 5, (S)-(3-aminopyrrolidin-1-yl)(4-methyl-4″-(trifluoromethyl)-[1,1′:2′,1″-terphenyl]-4′-yl)methanone] as the compound, how does the LSD1 inhibitory activity read?
A: did not have LSD1 inhibitory activity
